Measured values from patent US5573748A, “Radiolabeled technetium chelates for use in renal function determinations” (University of Utah Research Foundation, priority 1994, dated 1996).

Legend:
[1] = Biodistribution in normal mice after intravenous injection (renal uptake); type: in vivo
Protocol: Tc-99m-MAGGG was administered simultaneously with I-131 OIH (as a reference standard) to six mice in two groups. Each mouse was injected intravenously with 0.1 milliliters of a preparation containing 0.5 microcuries of Tc-99m-MAGGG and 0.2 microcuries of I-131 OIH, and then placed into a metabolic cage capable of collecting excreted urine.
Ten minutes after injection, each mouse's urethra was ligated and the mouse was sacrificed by chloroform vapor; various samples were then taken to determine biodistribution of radiolabeled material. The results of these samples are shown in Table I. Similar measurements, shown in Table II, were taken on the second group of mice 120 minutes after injection.

[2] = normal patients; cited from earlier work

Row | level in the urine relative to corresponding level of I-131 OIH ([1]; 10 minutes) [%] | Blood ([1]; 10 minutes after injection) | Intestine ([1]; 10 minutes after injection) | Kidneys ([1]; 10 minutes after injection) | Liver ([1]; 10 minutes after injection) | Stomach ([1]; 10 minutes after injection) | Urine ([1]; 10 minutes after injection) | level in the urine relative to corresponding level of I-131 OIH ([1]; 120 minutes) [%] | Blood ([1]; 120 minutes after injection) | Intestine ([1]; 120 minutes after injection) | Kidneys ([1]; 120 minutes after injection) | Liver ([1]; 120 minutes after injection) | Stomach ([1]; 120 minutes after injection) | Urine ([1]; 120 minutes after injection) | Substance | tubular extraction efficiency [2]
1 | 64.2 | 6.6 percentage of radioactive agen | 2.7 percentage of radioactive agen | 4.7 percentage of radioactive agen | 6.51 percentage of radioactive agen | .4 percentage of radioactive agen | 50.1 percentage of radioactive agen | 94.1 | .3 percentage of radioactive agen | 6.2 percentage of radioactive agen | .2 percentage of radioactive agen | 1.5 percentage of radioactive agen | .3 percentage of radioactive agen | 87.4 percentage of radioactive agen | Tc-99m-mercaptoacetylglycylglycylaspartic acid [Tc-99m-MAGG-Aspartic Acid] | –
2 | – | – | – | – | – | – | – | – | – | – | – | – | – | – | Tc-99m-N,N'-bis(mercaptoacetyl)-ethylenediamine [Tc-99M-DADS] | about 53%
